Reference: PMC11272978, “Exploring the central region of amylin and its analogs aggregation: the influence of metal ions and residue substitutions” (Frontiers in Chemistry, 2024)

What was measured:
[1] = Atomic force microscopy (AFM) of fibrils; assay type: physicochemical
Method: AFM imaging was conducted in a 256-scanning line at a 1 Hz scanning rate by using Bruker’s Nano Dimension Icon (Bruker Nano Inc., Germany). In this procedure, 200–300 μM hIAPP-F and Pramlintide-M were incubated with and without selected metal ions at 25°C for 24 h. All the samples were dissolved in 50 mM phosphate buffer (pH 7.4). The height of peptide aggregates was obtained from its section tool through Nano Scope Analysis 1.5, and the line position with average effects in the images was selected, except peptides alone in fibril form.

[2] = Turbidity on dissolving the peptide; assay type: physicochemical; details: dissolved in 50 mM phosphate buffer to 1 mM; observation; peptides then sonicated for 25 min
Method: (§1) Preparation of IAPP fragments solutions and thioflavin-T aggregation assays were performed as described earlier ([Alghrably et al., 2020]). In brief, IAPP fragments were dissolved in 50 mM phosphate buffer to concentrations of 1 mM. Stock solutions were diluted to the desired concentrations, and samples were used fresh each time. It is important to mention that due to the observation of turbidity after dissolving hIAPP-F and Pramlintide-M, both peptides were sonicated for 25 min. All of the aggregation reactions were conducted at 25°C with 40 μM IAPP fragments/mutants (final concentration) in 50 mM phosphate buffer (pH 7.4), and 20 μM thioflavin T in a final volume of 200 μL in each of the 96-well flat-bottom black plate (Corning 3915). We tested the aggregation of each IAPP fragment/mutants alone and with the addition of two metal ions Cu(II) and Zn(II). The metal ions were added to the IAPP fragments in 1:1 ratio. The plate was sealed with transparent film (Duck Brand Crystal Clear Tape, Avon, OH). Thioflavin T fluorescence emission at 528/20 nm (excitation at 485/20) was monitored on a Cytation 5 Multi-Mode Microplate. The measurements were collected by top reading each 5 min after a 3 s shake with an extended gain.

HeLa cells = assay: CCK-8 cytotoxicity assay; assay type: cell-based, human
Method: The cytotoxicity of the different peptides (rIAPP-F, hIAPP-F, Pramlintide-F, hIAPP-M, rIAPP-M, Pramlintide-M, and hIAPP) was tested using CCK-8 assay according to the manufacturer’s protocol. Briefly, cervical carcinoma cells (HeLa) were seeded into 96 well plates 8 × 10^3 cells/well in 100 µL DMEM culture medium with 10% FBS and 1% Penicillin-Streptomycin and incubated in a 5% CO2 incubator at 37°C overnight. After that, the cells were incubated with the different peptides prepared in deionized water at concentrations (200, 400, 600, and 800 μg/mL) for 24 h. In addition, the cytotoxicity of hIAPP-F and Pramlintide-M prepared in 0.5 mg/mL Cu(NO3)2 and ZnCl2 solutions at the same concentrations (200, 400, 600, and 800 μg/mL) was also tested. Cells without any treatment were used as a control, and all the conditions were done in triplicates. After 24 h, the media was discarded from the plate, and cells were washed with PBS. Then, 10 µL of CCK-8 and 90 µL of fresh DMEM media were added to each well and incubated for 4 h. The absorbance was measured at OD = […] using a microplate spectrophotometer (BioRad-xMark Microplate Absorbance Spectrophotometer). The ratio of the absorbance at 570/605 was calculated, and the average absorbance value of wells without cells was considered as blank and subtracted from all wells to cancel the background noise. The cells without any treatment were used as a control, and their mean value was considered 100% viable. The other treated cells’ viability was calculated using the formula: Cells viability % = (Corrected Mean Absorbance of treated cells)/(Corrected Mean Absorbance of control) ×100.

[3] = Thioflavin-T (ThT) aggregation assay; assay type: physicochemical; details: 40 μM peptide, 20 μM ThT, 50 mM phosphate buffer pH 7.4, 25°C
Method: as §1

[4] = 1D 1H NMR signal intensity over time (aggregation); assay type: physicochemical; details: 310 K, D2O with 20 mM phosphate buffer pH 7.4, 1.5 mM peptide (100 μM for hIAPP-F and Pramlintide-M), over 44 hours
Method: All peptides (except hIAPP-F and Pramlintide-M) were dissolved in 99.8% deuterium oxide containing 20 mM of phosphate buffer (pH 7.4). All samples contained 1.5 mM peptide concentration in 600 μL of sample volume except for hIAPP-F and Pramlintide-M, for which the final concentration was 100 μM (both peptides have a high tendency to aggregate at room temperature). The samples’ pH was manually adjusted to 7.4 with 0.1 M NaOD stock solution in 100% D2O. These samples were used for the ^1H and ^13C resonances assignment based on 2D spectra: ^1H-^13C HSQC ([Bodenhausen and Ruben, 1980]) tuned for the aliphatic region, HSQC-TOCSY ([Koz´min´ski and Koz´min´ski, 1999]), ^1H-^1H TOCSY ([Braunschweiler and Ernst, 1983]) mixing time 20 ms and 80 ms, ^1H-^1H ROESY ([Davis, 1985]) mixing time 300 ms and 500 ms. During the hIAPP-F and Pramlintide-M sample preparation, a temperature of 90°C was used to dissolve the peptides. After that, both samples were sonicated during the cooling down process to obtain a homogeneous solution. Spectra were measured immediately after sample preparation. The samples with the addition of metal ions were prepared with the same method as the samples of high tendency aggregation peptides hIAPP-F and Pramlintide-M. […]

[5] = peptide:Zn 1:1, 200 µM, phosphate buffer pH 7.4, 24 h

CC[C@H](C)[C@H](NC(=O)[C@@H]1CCCN1C(=O)CNC(=O)[C@H](Cc1ccccc1)NC(=O)[C@H](CC(N)=O)NC(=O)[C@H](CC(N)=O)NC(=O)[C@@H](N)CO)C(=O)N[C@@H](CC(C)C)C(=O)N[C@@H](CO)C(=O)N[C@@H](CO)C(=O)O [Pramlintide-M]
fibril morphology (AFM), peptide alone ([1]; 200 µM peptide, phosphate buffer pH 7.4, 25°C, 24 h): helical structure | fibril diameter (AFM), peptide alone ([1]; 200 µM peptide, phosphate buffer pH 7.4, 25°C, 24 h, profile analysis): 6 nm | fibril diameter (AFM) with Zn(II) [1, 5]: 6 nm | fibril morphology (AFM) with Zn(II) [1, 5]: Twisted fibrils | turbidity after dissolving [2]: turbidity | cell viability at 800 μg/mL (HeLa cells; 24 h, 800): 70% | cell viability, peptide-Cu(II) complex (HeLa cells; HeLa cells, peptide 200-800 μg/mL prepared in 0.5 mg/mL Cu(NO3)2, 24 h, CCK-8, n = 3): high cell viability | cell viability / proliferation, peptide with Zn(II) (HeLa cells; HeLa cells, peptide 200-800 μg/mL prepared in 0.5 mg/mL ZnCl2, 24 h, CCK-8, n = 3): high cell proliferation rate | time at which aggregation started (ThT), peptide alone [3]: 7 h | time to reach saturation phase (ThT), peptide alone [3]: 14 h | ThT fluorescence intensity (aggregation), peptide alone ([3]; ex 485/20, em 528/20 nm, read each 5 min): slight increase in the fluorescence intensity | ThT fluorescence intensity (aggregation) with Cu(II) ([3]; Cu(II) (Cu(NO3)2) 1:1): inhibited the aggregation | time at which aggregation started (ThT) with Zn(II) ([3]; Zn(II) 1:1): 12 h | time to reach saturation phase (ThT) with Zn(II) ([3]; Zn(II) 1:1): 14 h | ThT fluorescence intensity (aggregation) with Zn(II) ([3]; Zn(II) (ZnCl2) 1:1): slight increase in the fluorescence intensity | NMR signal intensity over time (signal loss = aggregation), peptide alone [4]: decreased over time
